Test results as given in PubChem BioAssay (NCI).
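Protocol summary: plate cells (96-well), add compound at 5 concentrations, incubate 48 h, interpolate endpoints linearly. GI50 is the concentration that inhibits growth by half. The concentration for full growth arrest is given as TGI.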

How the values were obtained:
Assay in all cases: NCI tumour cell line growth inhibition, 48 h
COLO 205 colon = system: COLO 205 colon
NCI-H522 lung = system: NCI-H522 lung
SF-295 CNS = system: SF-295 CNS
786-0 renal = system: 786-0 renal
MDA-MB-231 breast = system: MDA-MB-231 breast
SK-MEL-5 melanoma = system: SK-MEL-5 melanoma
NCI-H322M lung = system: NCI-H322M lung
HCT-15 colon = system: HCT-15 colon
A549 NSCLC = system: A549 NSCLC
A498 renal = system: A498 renal
HCT-116 colon = system: HCT-116 colon
SK-MEL-28 melanoma = system: SK-MEL-28 melanoma
SW-620 colon = system: SW-620 colon
U251 CNS = system: U251 CNS
HOP-62 NSCLC = system: HOP-62 NSCLC
CAKI-1 renal = system: CAKI-1 renal
OVCAR-3 ovarian = system: OVCAR-3 ovarian
SNB-75 CNS = system: SNB-75 CNS
MALME-3M melanoma = system: MALME-3M melanoma
SK-MEL-2 melanoma = system: SK-MEL-2 melanoma
SN12C renal = system: SN12C renal
EKVX NSCLC = system: EKVX NSCLC
HCC-2998 colon = system: HCC-2998 colon
BT-549 breast = system: BT-549 breast
M14 melanoma = system: M14 melanoma
CCRF-CEM leukemia = system: CCRF-CEM leukemia
OVCAR-5 ovarian = system: OVCAR-5 ovarian
MDA-MB-435 = system: MDA-MB-435
IGROV1 ovarian = system: IGROV1 ovarian
T-47D breast = system: T-47D breast
UACC-257 melanoma = system: UACC-257 melanoma
MCF7 breast = system: MCF7 breast
NCI-H23 lung = system: NCI-H23 lung
NCI-H226 lung = system: NCI-H226 lung
LOX IMVI melanoma = system: LOX IMVI melanoma
PC-3 prostate = system: PC-3 prostate
RXF 393 renal = system: RXF 393 renal
SF-539 CNS = system: SF-539 CNS
KM12 colon = system: KM12 colon
TK-10 renal = system: TK-10 renal
NCI-H460 lung = system: NCI-H460 lung
NCI/ADR-RES ovarian = system: NCI/ADR-RES ovarian
OVCAR-8 ovarian = system: OVCAR-8 ovarian
SF-268 CNS = system: SF-268 CNS
ACHN renal = system: ACHN renal
SNB-19 CNS = system: SNB-19 CNS
RPMI-8226 leukemia = system: RPMI-8226 leukemia
UO-31 renal = system: UO-31 renal
SK-OV-3 ovarian = system: SK-OV-3 ovarian
OVCAR-4 ovarian = system: OVCAR-4 ovarian

Structure (SMILES): COP(C)(=O)OCC1C(C=C(C)C)C1(C)COP(C)(=O)OC (stereo not given)
- GI50 (COLO 205 colon): > 100 µM
- TGI (COLO 205 colon): > 100 µM
- GI50 (NCI-H522 lung): > 100 µM
- TGI (NCI-H522 lung): > 100 µM
- GI50 (SF-295 CNS): > 100 µM
- TGI (SF-295 CNS): > 100 µM
- GI50 (786-0 renal): > 100 µM
- TGI (786-0 renal): > 100 µM
- GI50 (MDA-MB-231 breast): > 100 µM
- TGI (MDA-MB-231 breast): > 100 µM
- GI50 (SK-MEL-5 melanoma): > 100 µM
- TGI (SK-MEL-5 melanoma): > 100 µM
- GI50 (NCI-H322M lung): > 100 µM
- TGI (NCI-H322M lung): > 100 µM
- GI50 (HCT-15 colon): > 100 µM
- TGI (HCT-15 colon): > 100 µM
- GI50 (A549 NSCLC): > 100 µM
- TGI (A549 NSCLC): > 100 µM
- GI50 (A498 renal): > 100 µM
- TGI (A498 renal): > 100 µM
- GI50 (HCT-116 colon): > 100 µM
- TGI (HCT-116 colon): > 100 µM
- GI50 (SK-MEL-28 melanoma): > 100 µM
- TGI (SK-MEL-28 melanoma): > 100 µM
- GI50 (SW-620 colon): > 100 µM
- TGI (SW-620 colon): > 100 µM
- GI50 (U251 CNS): > 100 µM
- TGI (U251 CNS): > 100 µM
- GI50 (HOP-62 NSCLC): > 100 µM
- TGI (HOP-62 NSCLC): > 100 µM
- GI50 (CAKI-1 renal): > 100 µM
- TGI (CAKI-1 renal): > 100 µM
- GI50 (OVCAR-3 ovarian): > 100 µM
- TGI (OVCAR-3 ovarian): > 100 µM
- GI50 (SNB-75 CNS): > 100 µM
- TGI (SNB-75 CNS): > 100 µM
- GI50 (MALME-3M melanoma): > 100 µM
- TGI (MALME-3M melanoma): > 100 µM
- GI50 (SK-MEL-2 melanoma): > 100 µM
- TGI (SK-MEL-2 melanoma): > 100 µM
- GI50 (SN12C renal): > 100 µM
- TGI (SN12C renal): > 100 µM
- GI50 (EKVX NSCLC): > 100 µM
- TGI (EKVX NSCLC): > 100 µM
- GI50 (HCC-2998 colon): > 100 µM
- TGI (HCC-2998 colon): > 100 µM
- GI50 (BT-549 breast): > 100 µM
- TGI (BT-549 breast): > 100 µM
- GI50 (M14 melanoma): > 100 µM
- TGI (M14 melanoma): > 100 µM
- GI50 (CCRF-CEM leukemia): > 100 µM
- TGI (CCRF-CEM leukemia): > 100 µM
- GI50 (OVCAR-5 ovarian): > 100 µM
- TGI (OVCAR-5 ovarian): > 100 µM
- GI50 (MDA-MB-435): > 100 µM
- TGI (MDA-MB-435): > 100 µM
- GI50 (IGROV1 ovarian): > 100 µM
- TGI (IGROV1 ovarian): > 100 µM
- GI50 (T-47D breast): > 100 µM
- TGI (T-47D breast): > 100 µM
- GI50 (UACC-257 melanoma): > 100 µM
- TGI (UACC-257 melanoma): > 100 µM
- GI50 (MCF7 breast): > 100 µM
- TGI (MCF7 breast): > 100 µM
- GI50 (NCI-H23 lung): > 100 µM
- TGI (NCI-H23 lung): > 100 µM
- GI50 (NCI-H226 lung): > 100 µM
- TGI (NCI-H226 lung): > 100 µM
- GI50 (LOX IMVI melanoma): > 100 µM
- TGI (LOX IMVI melanoma): > 100 µM
- GI50 (PC-3 prostate): > 100 µM
- TGI (PC-3 prostate): > 100 µM
- GI50 (RXF 393 renal): > 100 µM
- TGI (RXF 393 renal): > 100 µM
- GI50 (SF-539 CNS): > 100 µM
- TGI (SF-539 CNS): > 100 µM
- GI50 (KM12 colon): > 100 µM
- TGI (KM12 colon): > 100 µM
- GI50 (TK-10 renal): > 100 µM
- TGI (TK-10 renal): > 100 µM
- GI50 (NCI-H460 lung): > 100 µM
- TGI (NCI-H460 lung): > 100 µM
- GI50 (NCI/ADR-RES ovarian): > 100 µM
- TGI (NCI/ADR-RES ovarian): > 100 µM
- GI50 (OVCAR-8 ovarian): > 100 µM
- TGI (OVCAR-8 ovarian): > 100 µM
- GI50 (SF-268 CNS): > 100 µM
- TGI (SF-268 CNS): > 100 µM
- GI50 (ACHN renal): > 100 µM
- TGI (ACHN renal): > 100 µM
- GI50 (SNB-19 CNS): > 100 µM
- TGI (SNB-19 CNS): > 100 µM
- GI50 (RPMI-8226 leukemia): > 100 µM
- TGI (RPMI-8226 leukemia): > 100 µM
- GI50 (UO-31 renal): > 100 µM
- TGI (UO-31 renal): > 100 µM
- GI50 (SK-OV-3 ovarian): > 100 µM
- TGI (SK-OV-3 ovarian): > 100 µM
- GI50 (OVCAR-4 ovarian): > 100 µM
- TGI (OVCAR-4 ovarian): > 100 µM
